In BindingDB's records for doi:10.1016/j.bmc.2015.04.057 (Beni-Suef University, 2015):

Test: Antiinflammatory activity in mouse RAW264.7 cells assessed as inhibition of LPS-induced iNOS activity incubated for 30 mins prior to LPS challenge measured after 24 hrs by Griess assay

Compound: O=c1sc2ccccc2n1CCCCCN1CCN(CCCCn2c(=O)sc3ccccc32)CC1
- IC50: 1440 nM
